## Binding of CDR-mutated scFvs to a peptide of the spike HR2 region

The target is the same throughout: PDVDLGDISGINAS, from the HR2 region of SARS-CoV-2 spike.

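Library AAYL49 holds single substitutions and randomly drawn double and triple substitutions in the CDRs. Affinity was read by AlphaSeq, a pooled yeast mating assay with surface-displayed partners. Mating (16 h, 30 °C) was followed by selection of diploids and sequencing of their barcodes. A regression on co-assayed BCL2-family reference pairs converts the normalised counts of each replicate to an apparent Kd. Each pool was mated in three replicate cultures.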

Parent scFv Ab-14: VH joined to VL by the linker GGGGSGGGGSGGGGS. Changes lie in the heavy chain CDRs alone.
VH: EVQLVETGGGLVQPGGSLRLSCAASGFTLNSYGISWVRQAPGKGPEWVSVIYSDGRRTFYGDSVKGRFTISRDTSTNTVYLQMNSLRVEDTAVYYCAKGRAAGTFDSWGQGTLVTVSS
VL: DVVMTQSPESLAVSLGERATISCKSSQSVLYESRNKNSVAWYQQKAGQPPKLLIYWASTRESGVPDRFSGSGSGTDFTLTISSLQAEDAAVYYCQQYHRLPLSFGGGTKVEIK

The parent's heavy chain CDRs are GFTLNSYGIS, VIYSDGRRTFYGDSVK, GRAAGTFDS; each variant's own CDRs replace them letter for letter. All variants listed here change F27 of the VH, counted from its first residue. Each Kd is an estimate from the mating assay, the geometric mean of the replicates in which the pair was seen; lower is stronger. A pair that was not seen in any replicate is written "no signal"; this usually means weak binding, but a binder can also be missed. As a blank, each scFv also met three strains without target: over library AAYL49, 15% of these pairings were detected, typically at 11 µM and seldom below 680 nM.

Variant GPTWNLYGIS | VIYSDGRRTFYGDSVK | GRAAGTFDS showed 310 nM (3 of 3 replicates). For GWTLNSYKIS | VIYSDGRRDFYGDSVK | GRAAGTFDS, the assay gave 54 µM (3 of 3 replicates). Variant GATLNSYTIS | VIYSDGRRTFYGDSVK | GRAAGTFDS showed 5.8 µM (1 of 3 replicates). Variant GDTLNSDGIS | VIYSDGRRTFYGDSVK | GRAAGTFDV showed 4.3 µM (1 of 3 replicates). Variant GLHLNSYGIS | VIYRDGRRTFYGDSVK | GRAAGTFDS gave no signal (0 of 3 replicates). With GKTLNSYGIS | VIMSDGRRTFYHDSVK | GRAAGTFDS the result was no signal (0 of 3 replicates). Variant GTTLNSYGIS | VIYSDGRRTFRGDSVK | GRYAGTFDS gave 920 nM (1 of 3 replicates). Variant GETLNSYGQS | VIYSDGRMTFYGDSVK | GRAAGTFDS showed no signal (0 of 3 replicates).

With GSTMNSYGIS | VIYSDGRRTFYGDMVK | GRAAGTFDS the result was 1.0 µM (3 of 3 replicates). With GATLGSYGIS | VIYSDGPRTFYGDSVK | GRAAGTFDS the result was 220 µM (1 of 3 replicates). Variant GATLNSYGIS | VPYSDGRRTFYGDSVK | GRNAGTFDS gave no signal (0 of 3 replicates). Variant GITLNSYGIS | VIYSDGRRTFYGNSVL | GRAAGTFDS gave 450 nM (3 of 3 replicates). For GQTLNSYGIS | VIYSRGRRTFYGDSVK | GRAGGTFDS, the assay gave 23 µM (1 of 3 replicates). Variant GDTLNSYGIS | VIYSDGRRTFYGDSQK | GCAAGTFDS showed no signal (0 of 3 replicates). Variant GATLNSYGFA | VIYSDGRRTFYGDSVK | GRAAGTFDS showed no signal (0 of 3 replicates). Variant GDTLNSYGIG | VIYSDGRRTFYGDWVK | GRAAGTFDS showed 10 µM (1 of 3 replicates).

With GLTLNSYGIS | DIYSDGRRTFYGDSVK | GRIAGTFDS the result was no signal (0 of 3 replicates). Variant GDPLNSYGIS | VIRSDGRRTFYGDSVK | GRAAGTFDS gave 83 µM (1 of 3 replicates). Variant GYTLNSYGIS | VIYSDGRRTFYGDSVK | GRAAGTFFS showed no signal (0 of 3 replicates). For GKTLNSYGIS | VIYSDGRRTFYGCSVK | GRAAGTFDE, the assay gave 220 µM (3 of 3 replicates). With GATLNSYGIS | VIYSDGRVTFYGDSVK | GRDAGTFDS the result was 4.3 µM (1 of 3 replicates). Variant GLTLNSYGSS | VIYSDGRRTRYGDSVK | GRAAGTFDS showed no signal (0 of 3 replicates). Variant GKTLNSYGIS | VIYSDGRRTFYGDSVK | GRAAGTFDS showed 66 nM (3 of 3 replicates). Variant GATLNSYGIS | VIYSDSRRTFNGDSVK | GRAAGTFDS gave no signal (0 of 3 replicates).

For GMTTNSYGIS | VIYSDGRKTFYGDSVK | GRAAGTFDS, the assay gave no signal (0 of 3 replicates). Variant GETLNSYGIS | VIYSDGRRTFYCDSVK | GRAAGTFDS gave 25 µM (1 of 3 replicates). For GNTLNSYGIS | RIYSDGRRTFYGDSVK | GRAAGRFDS, the assay gave 1.9 µM (1 of 3 replicates). With GNTLNRYGLS | VIYSDGRRTFYGDSVK | GRAAGTFDS the result was 49 µM (1 of 3 replicates). For GVTLNSYGIS | VIYSDGRRTGYLDSVK | GRAAGTFDS, the assay gave 220 nM (3 of 3 replicates). Variant GGNLNSYGPS | VIYSDGRRTFYGDSVK | GRAAGTFDS showed 9.5 µM (1 of 3 replicates). For GCTLNSYGIS | VIYSDGRRTFYGDSFK | GRAAGTFDS, the assay gave no signal (0 of 3 replicates).

Picked from the list: the 3 lowest averages where every replicate gave a value.

For GKTLNSYGIS | VIYSDGRRTFYGDSVK | GRAAGTFDS, the assay gave 66 nM (3 of 3 replicates).
For GVTLNSYGIS | VIYSDGRRTGYLDSVK | GRAAGTFDS, the assay gave 220 nM (3 of 3 replicates).
For GPTWNLYGIS | VIYSDGRRTFYGDSVK | GRAAGTFDS, the assay gave 310 nM (3 of 3 replicates).

Source: Engelhart et al. 2022 (doi:10.1038/s41597-022-01779-4), MIT Lincoln Laboratory and A-Alpha Bio; data file from the FLAb repository.